The structures appear in SMILES notation. Only a part is listed here, and it is no random draw. Active and inactive are the calls of the source. No stated cut-off is given here; in the data, active means inhibition above about 50%; inactive means the rest.

Sequences of proteins named here, by UniProt entry; tags and fusion partners are left off.
UniProt P41145, whole entry: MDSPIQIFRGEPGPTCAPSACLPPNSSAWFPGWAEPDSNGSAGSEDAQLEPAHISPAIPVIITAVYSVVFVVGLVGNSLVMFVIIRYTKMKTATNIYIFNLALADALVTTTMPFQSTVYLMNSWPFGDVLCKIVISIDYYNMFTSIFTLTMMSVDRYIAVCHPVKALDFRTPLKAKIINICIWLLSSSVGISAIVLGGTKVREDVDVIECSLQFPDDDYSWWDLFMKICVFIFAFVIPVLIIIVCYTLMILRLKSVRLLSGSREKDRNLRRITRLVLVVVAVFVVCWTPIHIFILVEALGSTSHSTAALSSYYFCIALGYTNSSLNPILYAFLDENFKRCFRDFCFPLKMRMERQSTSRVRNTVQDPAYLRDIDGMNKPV

One may read the inhibition as the change of the read-out against control, counted positive when it falls.

The assay has as its target Kappa-type opioid receptor (Homo sapiens) (UniProt P41145). Put plainly: blocks the human kappa opioid receptor, Maybridge compounds (AID 652031). Conditions: OPRK1 cells, antagonist mode, fluorescence readout; at 9 µM; stronger effect = higher value.
In the case of `Cc1ccccc1NC1CC(C)(C)NC(C)(C)C1`, the inhibition was inactive: -0.2%.

The record behind these values is PubChem BioAssay AID652031 (The Scripps Research Institute Molecular Screening Center, 2013).
